Data reported in publication PMC6930522, “Structure-Based Pharmacophore Modeling, Virtual Screening, Molecular Docking and Biological Evaluation for Identification of Potential Poly (ADP-Ribose) Polymerase-1 (PARP-1) Inhibitors” (Molecules, 2019).

Chains of the proteins cited; added tags and fusions are not shown.
UniProt P09874, whole entry: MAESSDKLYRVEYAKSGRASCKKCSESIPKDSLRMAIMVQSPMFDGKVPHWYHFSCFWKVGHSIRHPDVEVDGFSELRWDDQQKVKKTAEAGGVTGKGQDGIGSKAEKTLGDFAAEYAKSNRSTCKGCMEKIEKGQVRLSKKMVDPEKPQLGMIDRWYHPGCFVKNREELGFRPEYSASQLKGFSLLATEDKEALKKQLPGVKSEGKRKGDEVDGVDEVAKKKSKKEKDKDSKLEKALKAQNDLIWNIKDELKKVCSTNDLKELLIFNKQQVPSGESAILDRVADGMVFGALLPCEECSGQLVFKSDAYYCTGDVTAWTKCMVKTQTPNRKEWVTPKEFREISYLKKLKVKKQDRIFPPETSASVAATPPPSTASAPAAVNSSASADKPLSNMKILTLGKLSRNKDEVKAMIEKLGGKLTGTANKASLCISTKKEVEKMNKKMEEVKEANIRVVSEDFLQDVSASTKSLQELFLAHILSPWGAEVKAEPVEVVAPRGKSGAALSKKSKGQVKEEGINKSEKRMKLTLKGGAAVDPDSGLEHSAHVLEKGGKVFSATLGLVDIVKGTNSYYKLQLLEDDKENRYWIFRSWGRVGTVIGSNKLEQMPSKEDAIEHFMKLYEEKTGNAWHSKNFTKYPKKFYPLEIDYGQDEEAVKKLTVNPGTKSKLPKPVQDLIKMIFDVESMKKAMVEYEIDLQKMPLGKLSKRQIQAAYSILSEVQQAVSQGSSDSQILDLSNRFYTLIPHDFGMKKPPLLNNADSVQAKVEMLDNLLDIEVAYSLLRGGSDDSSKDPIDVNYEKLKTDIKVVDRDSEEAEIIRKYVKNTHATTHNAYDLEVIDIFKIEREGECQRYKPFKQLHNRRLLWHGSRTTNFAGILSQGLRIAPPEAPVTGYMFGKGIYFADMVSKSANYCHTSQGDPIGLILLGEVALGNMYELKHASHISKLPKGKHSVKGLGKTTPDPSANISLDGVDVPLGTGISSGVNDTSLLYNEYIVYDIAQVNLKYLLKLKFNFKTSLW

Biological target: T1, PARP-1 (Homo sapiens, UniProt P09874)
T1 construct: purchased Trevigan (Gaithersburg, MD, USA)
Assay: In vitro PARP inhibition assay (PARP-1)
Type: biochemical
Details: Table 3; PARP-1 enzyme assay, mean ± SD, three independent experiments
Protocol: Purified recombinant human PARPs from Trevigan (Gaithersburg, MD, USA) was used to determine the IC50 values of a PARP inhibitor. The PARP enzyme assay was set up on ice in a volume of 100 μL consisting of 50 mM Tris–HCl (pH 8.0), 2 mM MgCl2, 30 μg/mL of DNase activated herring sperm DNA (Sigma, MO, USA), 30 μM [^3H]nicotinamide adenine dinucleotide (67 mCi/mmol), 75 μg/mL PARP enzyme and various concentrations of the compounds to be tested. The reaction was initiated by incubating the mixture at 25 °C. After 15 min of incubation, the reaction was terminated by adding 500 μL of ice cold 20% (w/v) trichloroacetic acid. The formed precipitate was transferred onto a glass fiber filter (Packard Unifilter–GF/B) and washed three times with ethanol. After the filter is dried, the radioactivity is determined by scintillation counting.

Structure (SMILES): NC(=O)c1cccc2c1C(=O)N(C1CCN(Cc3ccc(F)cc3)CC1)C2 [Compound 1]
- IC50: 0.031 ± 0.005 µM
